B1: X-ray repair cross-complementing protein 5 (Homo sapiens), P13010 (parent)
chain: MVRSGNKAAVVLCMDVGFTMSNSIPGIESPFEQAKKVITMFVQRQVFAENKDEIALVLFGTDGTDNPLSGGDQYQNITVHRHLMLPDFDLLEDIESKIQPGSQQADFLDALIVSMDVIQHETIGKKFEKRHIEIFTDLSSRFSKSQLDIIIHSLKKCDISLQFFLPFSLGKEDGSGDRGDGPFRLGGHGPSFPLKGITEQQKEGLEIVKMVMISLEGEDGLDEIYSFSESLRKLCVFKKIERHSIHWPCRLTIGSNLSIRIAAYKSILQERVKKTWTVVDAKTLKKEDIQKETVYCLNDDDETEVLKEDIIQGFRYGSDIVPFSKVDEEQMKYKSEGKCFSVLGFCKSSQVQRRFFMGNQVLKVFAARDDEAAAVALSSLIHALDDLDMVAIVRYAYDKRANPQVGVAFPHIKHNYECLVYVQLPFMEDLRQYMFSSLKNSKKYAPTEAQLNAVDALIDSMSLAKKDEKTDTLEDLFPTTKIPNPRFQRLFQCLLHRALHPREPLPPIQQHIWNMLNPPAEVTTKSQIPLSKIKTLFPLIEAKKKDQVTAQEIFQDNHEDGPTAKKLKTEQGGAHFSVSSLAEGSVTSVGSVNPAENFRVLVKQKKASFEEASNQLINHIEQFLDTNETPYFMKSIDCIRAFREEAIKFSEEQRFNNFLKALQEKVEIKQLNHFWEIVVQDGITLITKEEASGSSVTAEEAKKFLAPKDKPSGDTAAVFEEGGDVDDLLDMI
partner: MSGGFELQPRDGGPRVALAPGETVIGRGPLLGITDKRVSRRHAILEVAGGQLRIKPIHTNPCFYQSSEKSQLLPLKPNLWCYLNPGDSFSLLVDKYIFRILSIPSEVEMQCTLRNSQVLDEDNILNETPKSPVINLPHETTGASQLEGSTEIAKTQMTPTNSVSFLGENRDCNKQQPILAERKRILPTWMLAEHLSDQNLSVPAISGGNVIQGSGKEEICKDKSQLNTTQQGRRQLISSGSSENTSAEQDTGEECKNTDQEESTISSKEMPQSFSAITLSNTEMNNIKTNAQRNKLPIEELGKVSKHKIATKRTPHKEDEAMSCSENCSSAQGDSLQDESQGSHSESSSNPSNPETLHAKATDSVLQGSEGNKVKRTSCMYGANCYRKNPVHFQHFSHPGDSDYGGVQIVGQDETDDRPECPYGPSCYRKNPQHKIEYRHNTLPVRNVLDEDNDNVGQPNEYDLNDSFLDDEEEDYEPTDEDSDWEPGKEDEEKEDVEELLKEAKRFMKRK

Variants of: B1
Details: with aplf_human APLF

effect of a mutation on the interaction | Variant
decreasing interaction | L169R

Variants of: B1
Details: with aplf_human APLF
Remark: another data set of the same source

effect of a mutation on the interaction | Variant
disrupting interaction | L68R

Variants of: B1
Details: with aplf_human APLF
Remark: another data set of the same source

effect of a mutation on the interaction | Variant
disrupting interaction | Y74R

Variants of: B1
Details: with aplf_human APLF
Remark: another data set of the same source

effect of a mutation on the interaction | Variant
disrupting interaction | I112R
